Consider two molecules from patent US20190339279A1, “DETECTING NITROAROMATIC COMPOUNDS WITH PYRENE-LABELED STARCH NANOPARTICLES” (published 2019).

Series [1] in a line: Quenching studies of Py-SNPs in water (steady-state fluorescence). The note with it: monomer between 356 and 400 nm, on addition of quencher.
The nature of series [2]: Quenching studies of Py-SNPs in DMSO (time-resolved fluorescence, Stern-Volmer). The settings on record: from slope of τ0/τ vs quencher concentration.
The conditions of series [3]: in water; cited from earlier work.

In brackets after ≈: the same amount, converted by molar mass.

On to `Cc1ccc([N+](=O)[O-])cc1`, for which the “change in fluorescence intensity of the pyrene monomer” value in series [1] is recorded as 10%. Moreover, the “bimolecular quenching rate constant kq” value in series [2] was 4.0 (±0.3) M^−1 ns^−1. In addition, the water solubility in series [3] was 361 µg/mL (≈ 2630 µM).
As for `C[N+](=O)[O-]`, the “bimolecular quenching rate constant kq” value in series [2] was 1.7 (±0.1) M^−1 ns^−1.
